Test results as given in patent US11780935B2, “Mutant antibodies and conjugation thereof” (Pfizer Healthcare Ireland, priority 2012, dated 2023).

Tests used:
[1] = target: cognate receptor for the 39-mer peptide; assay: Binding of the cognate receptor for the 39-mer peptide; conditions: read-out: Peptide target: EC50
Protocol: In a separate experiment, the 39-mer peptide was conjugated to h38C2-IgG2 with MAL-PEG2-PFP as described above, at different molar concentrations. In addition, binding of the cognate receptor for the 39-mer peptide was assayed. The results (Table 30) shown are consistent with directional conjugation at CLκ-K^80.

rats [2] = assay: Exploratory toxicity study in rats, single intravenous bolus, 14 days, with plasma exposure; assay type: in vivo, rat; conditions: for AUC(0-312): 100 mg/kg single IV bolus, plasma; for clinical tolerability: all doses (10, 30, 100 mg/kg); for red blood cell (RBC) mass (RBC count, hemoglobin and/or hematocrit): at ≥10 or ≥30 mg/kg; for microscopic findings: necropsy day 15
Protocol: The three mAb conjugates were evaluated in an exploratory toxicity study in rats in which animals received single intravenous bolus doses of each ADC at 0 (vehicle), 10, 30, and 100 mg/kg (5 male rats/group) and were then observed for 14 days. Toxicology evaluation included daily clinical observations, weekly body weight measurements and clinical pathology evaluation on the day of necropsy. Animals were euthanized on day 15 and selected tissues were collected for microscopic examination.

rats [3] = assay: Rat tolerability, single bolus dose, one week study (PFP vs NHS conjugation); assay type: in vivo; conditions: for survival and body weight: one week

Substance	EC50 ([1]; 39-mer peptide:h38C2-IgG2 mole ratio 2:1)	EC50 ([1]; 39-mer peptide:h38C2-IgG2 mole ratio 2.5:1)	EC50 ([1]; 39-mer peptide:h38C2-IgG2 mole ratio 4:1)	EC50 ([1]; 39-mer peptide:h38C2-IgG2 mole ratio 5:1)	aspartate aminotransferase (AST) (rats [2]; 100 mg/kg)	AUC(0-312) (rats [2])	clinical tolerability (rats [2])	red blood cell (RBC) mass (RBC count, hemoglobin and/or hematocrit) (rats [2])	microscopic findings (rats [2])	ALT, AST, ALP and total bilirubin (rats [2]; 100 mg/kg)	clinical signs (rats [2]; 100 mg/kg)	platelet counts (rats [2]; 100 mg/kg)	premature euthanasia (rats [2]; 100 mg/kg, Day 8)	target organ toxicities (rats [2]; summary)	animals died (rats [3]; 100 mg/kg single bolus, within one week)	survival and body weight (rats [3]; 10 and 30 mg/kg single bolus)	% Survival (rats [3]; rats, single bolus dose 100 mg/Kg, one week study)	survival and body weight (rats [3]; 100 mg/kg single bolus)
39-mer peptide:h38C2-IgG2	0.99 nM	1.06 nM	1.01 nM	0.82 nM														
hTrast-[CLκ-D^77A]-[5PEG-MMAD]: hTrast-[CLκ-D^77A] conjugated to					minimal increases	177 µg·h/mL	clinically well tolerated at all doses	mild decreases	alveolar histiocytosis/inflammation in the lung, degeneration of small bile ducts in the liver and increased tingible body macrophages (containing cell debris) in the bone marrow									
trastuzumab-(MMAD)n: MMAD on 5PEG linker with Z13 (NHS) leaving group, non-specific conjugation to trastuzumab surface lysines [reference compound]						139 µg·h/mL		more pronounced	more pronounced microscopic tissue alterations	mild increases	marked clinical signs	moderate decreases	⅕	significant target organ toxicities in the liver, kidney, lung and bone marrow	Greater than 50%	survived without significant body weight loss	50%	
trastuzumab-[5PEG-MMAD]: trastuzumab conjugated to [PEG5-MMAD] by directional conjugation to CLκ-K^80 using PFP ester (Z1)					minimal increases	174 µg·h/mL	clinically well tolerated at all doses	mild decreases	alveolar histiocytosis/inflammation in the lung, degeneration of small bile ducts in the liver and increased tingible body macrophages (containing cell debris) in the bone marrow							survived without significant body weight loss		survived without significant body weight loss

Read-outs that look alike come from different tables or passages of the source.
